## Yeast mating assay 1: variants of the scFv Ab-14

The target is the same throughout: PDVDLGDISGINAS, from the HR2 region of SARS-CoV-2 spike.

Ab-14 is the parent antibody, in scFv form: VH, then a (GGGGS)3 linker, then VL. The light chain is unchanged in all variants.
VH: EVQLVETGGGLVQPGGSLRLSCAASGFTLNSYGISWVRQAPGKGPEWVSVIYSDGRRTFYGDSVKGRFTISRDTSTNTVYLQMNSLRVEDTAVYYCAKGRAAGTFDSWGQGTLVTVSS
VL: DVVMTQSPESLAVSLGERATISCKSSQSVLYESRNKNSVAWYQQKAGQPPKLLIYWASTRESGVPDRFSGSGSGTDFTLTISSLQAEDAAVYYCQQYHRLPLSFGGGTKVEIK

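The starting antibody came from a phage panning campaign against this peptide. The library (AAYL49) carries one to three amino acid substitutions per variant, with no insertions or deletions. The assay is AlphaSeq: two haploid yeast populations carry antibody and antigen on their surface. After mating in shaken culture at 30 °C for 16 h, diploids were selected and their barcode pairs sequenced. Scores were corrected for input abundance and mapped to Kd with protein pairs of known affinity run in the same pool. The assay was run in three technical replicates.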

Variants are written as CDR1, CDR2 and CDR3 of the heavy chain (limits as in the source). Parent: GFTLNSYGIS, VIYSDGRRTFYGDSVK, GRAAGTFDS. Each Kd is an estimate from the mating assay, the geometric mean of the replicates in which the pair was seen; lower is stronger. A pair that was not seen in any replicate is written "no signal"; this usually means weak binding, but a binder can also be missed. Nonspecific signal, from three strains lacking the peptide, appeared in 15% of pairings of library AAYL49, centred on 11 µM (5% of these signals below 680 nM); values are not corrected for it. Also given: how often the same scFv was detected with the empty control strains. In this assay the parent's reference entry averaged 4.4 nM; its copy inside this library read 13 µM (one replicate of three).

Kd	seen in	empty controls	CDR-H1	CDR-H2	CDR-H3
8.7 µM	3 of 3	0 of 9	GWTLNSYGIS	VIYSDGRRHFYGNSVK	GRAAGTFDS
no signal	0 of 3	0 of 9	GFYLNSWGIS	VIYSDGRRTFYGDSVK	GRAAQTFDS
no signal	0 of 3	0 of 9	GFTLNSYGSS	VDYSDGRRTFYGDSVK	GRADGTFDS
3.5 nM	3 of 3	1 of 9	GFTLNSYGIS	VIYSDGRKCFYGDSVK	GSAAGTFDS
no signal	0 of 3	0 of 9	GFTLNSYGIS	FIYSDGRRTFYGDSVR	GRAPGTFDS
no signal	0 of 3	2 of 9	GHTLTSYGIS	VIYSDSRRTFYGDSVK	GRAAGTFDS
no signal	0 of 3	1 of 9	GFTLNSYGIS	VNYSKGRRTFYGDSVK	GRAAGTFTS
6.9 µM	2 of 3	3 of 9	TFTLNSYGIS	VIYSDGRRTFYGDSVK	GRAAGGFDV
1.4 µM	1 of 3	1 of 9	GKTLNSYGIS	VIYSRGRWTFYGDSVK	GRAAGTFDS
no signal	0 of 3	1 of 9	GFTLNSYGIS	VIYSDGRNTFYGDSKK	GRAAGTFDT
no signal	0 of 3	1 of 9	GFTLNSYGIS	NIYSDGRRTFYGDSVK	GRFAGTFDC
320 nM	3 of 3	2 of 9	GGTLNFYGIS	VIYSDGRRTFYGDSVS	GRAAGTFDS
1.8 µM	3 of 3	0 of 9	GFTLNSYGIS	VIYFDGRRCFYGDSVK	GRAAGTFDS
no signal	0 of 3	0 of 9	GFLLNSYGIK	VIYSDGRRTFYKDSVK	GRAAGTFDS
21 µM	2 of 3	3 of 9	FFTLNSEGIS	VIYSDGRRTTYGDSVK	GRAAGTFDS
3.7 µM	1 of 3	2 of 9	GFTLNSYGIH	VIYSDHRRTFTGDSVK	GRAAGTFDS
no signal	0 of 3	1 of 9	GFTLNSYGII	VIYSDGRREFYGDSVK	GRAAGYFDS
33 µM	3 of 3	3 of 9	GFTPNSYGIS	VIYSDGIRTFYGDQVK	GRAAGTFDS
no signal	0 of 3	0 of 9	GFTLNSYGIQ	VIYSDGRRTWYGDSVK	GRAAGAFDS
46 µM	1 of 3	1 of 9	GFTLNSYGIS	NIYSDGRRTFYGDSVK	GRAHGWFDS
21 µM	2 of 3	3 of 9	GFTLNSYGIS	VIYSDGRRYFFGDSAK	GRAAGTFDS
4.6 µM	1 of 3	0 of 9	PFTLNSYGIS	VIYSDGRRTFYGDVWK	GRAAGTFDS
no signal	0 of 3	0 of 9	EFTSNSYGIS	AIYSDGRRTFYGDSVK	GRAAGTFDS
no signal	0 of 3	1 of 9	GFTLNSYGIS	VIGSDGIRTFYGDSVK	GRCAGTFDS
13 µM	2 of 3	1 of 9	GFTLNSYGIS	VKYSDDRRTNYGDSVK	GRAAGTFDS
no signal	0 of 3	0 of 9	GFTLNSYGIS	VIYGCGRRTFYGDSVK	GRAAGTFDS
no signal	0 of 3	0 of 9	GFTLNSYGIS	VIDSDGRRTFYTDSVK	GRAAITFDS
no signal	0 of 3	0 of 9	GFTLNSYGIQ	VIYSDGRRTFYGMSVK	GRTAGTFDS
38 µM	1 of 3	0 of 9	GFTLNSYYAS	AIYSDGRRTFYGDSVK	GRAAGTFDS
no signal	0 of 3	0 of 9	GFTLNSYGIW	VQYSDGRRTFYGDSVK	GRAAGTFDS
4.6 µM	1 of 3	0 of 9	GFTLNSYGIS	VIYSEGRRTFYGDSLK	GRAAGTFDS
no signal	0 of 3	0 of 9	GFTLNSYVIS	VIYSFGRRTFYGDSVK	GRAADTFDS
no signal	0 of 3	0 of 9	GFTLNSYGIS	VIYSGGDETFYGDSVK	GRAAGTFDS
no signal	0 of 3	0 of 9	GFTLNWYGIS	VIYSDGRDTSYGDSVK	GRAAGTFDS
250 µM	1 of 3	2 of 9	GFTLNSYRIS	VIYSDGRRTFYGHSVK	GRARGTFDS
no signal	0 of 3	0 of 9	GFTSNSYGIS	VIYSDARRTFYGDSVK	GRAAGTFDP
no signal	0 of 3	0 of 9	FFTLNSYGIS	VIYSLGRRTFYGDSVK	GREAGTFDS
no signal	0 of 3	0 of 9	AFILNSYGIS	AIYSDGRRTFYGDSVK	GRAAGTFDS
no signal	0 of 3	0 of 9	GFTLCSYGIS	VITSMGRRTFYGDSVK	GRAAGTFDS
18 µM	1 of 3	1 of 9	GFTLNPYGIS	VIYSDYRRTFYGDSVK	GRAAGSFDS
150 nM	2 of 3	0 of 9	GFTLNMYGIS	VIYSDGRRTFYGDSVC	GRAAGGFDS
no signal	0 of 3	1 of 9	GFTLNSYGIW	VIYSDGRRTFYGDSLK	GRAAGPFDS
no signal	0 of 3	0 of 9	GFTLNSYGIS	VHYSDGRRTFYGDSCK	GRAAGTFDS
790 nM	2 of 3	2 of 9	GFTLNSYGIS	VIYSDGRRTPYGDSVG	GDAAGTFDS
37 µM	2 of 3	3 of 9	GFTLNSYGIS	VICSDGRRTFSGLSVK	GRAAGTFDS
56 µM	2 of 3	5 of 9	GFNLNSYGIS	VIYDDGRRTFNGDSVK	GRAAGTFDS
52 µM	1 of 3	1 of 9	GFTLNSYGIS	VIYSCGRRTFYGDSVW	GRAAGTFDM
no signal	0 of 3	1 of 9	GFTLNSYGIS	NIYSDGRPTFYGDSVK	MRAAGTFDS
41 µM	2 of 3	1 of 9	GFTLNSYGIS	VRYPDGRRDFYGDSVK	GRAAGTFDS
no signal	0 of 3	0 of 9	GFTLNSYGIS	VIYSACRRTFYGDQVK	GRAAGTFDS
11 µM	1 of 3	3 of 9	GFTLNSYGLS	VIYSDGRRTNYGDSGK	GRAAGTFDS
9.9 µM	1 of 3	0 of 9	GFTLNSYGIS	YIYSDGCRTFYGDSVK	GRAAGTMDS
140 µM	3 of 3	8 of 9	GFTLNSYGIS	VIYSDGRCEFYGDSVK	GRAAGCFDS
800 nM	2 of 3	0 of 9	GRTLNSYGIS	VIYSDGGRTFYGDSVK	GAAAGTFDS
no signal	0 of 3	1 of 9	GFTLNSYGIS	VIYSDGRRTFKGDSGK	GRAAPTFDS
250 µM	2 of 3	1 of 9	GFTLNSYVIS	VIYSDGRRTFYPDSVK	HRAAGTFDS
48 µM	1 of 3	2 of 9	GFTLNSYGIS	SIYCDGRRTFYGNSVK	GRAAGTFDS
15 µM	1 of 3	1 of 9	PFKLNSYGIS	VIYSDGRRTFYGDSVT	GRAAGTFDS
130 µM	1 of 3	3 of 9	WFTLASYGIS	VIYSDGRRTFYGDSVK	GRAAGTKDS
no signal	0 of 3	2 of 9	GFTLNSYGIS	VIYSDGRRTFYVDSKC	GRAAGTFDS
7.2 µM	1 of 3	0 of 9	HFTLNSYGIS	VKYSDGRRTFYGDSVK	ARAAGTFDS
66 µM	1 of 3	2 of 9	RFTLNSYGIS	DIYSDGRRTFYGDSVK	GVAAGTFDS
19 µM	1 of 3	3 of 9	GFTLNSYGIS	VIYSDGRRTFYGDSVK	ERAAGEDDS
no signal	0 of 3	1 of 9	GFHLNSYGIS	VIYSDGRRTFYGDSVK	GRAAGQNDS
no signal	0 of 3	5 of 9	GFTLNSYGIS	VIYSDGRRTFYGDSNK	GRASGTFDS
150 µM	2 of 3	2 of 9	GFTLNSYVIS	VIYSDGRTTFYGWSVK	GRAAGTFDS
no signal	0 of 3	1 of 9	GFTLNSYGIS	VIVSDGRRTFYGSSVK	GRAAGPFDS
no signal	0 of 3	3 of 9	GFTLNSYGIS	TIYSTGRRTFYGDSVK	HRAAGTFDS
13 µM	1 of 3	4 of 9	GFTLNSYAIS	TIYSDGRRTFYGDSVK	DRAAGTFDS

Data: MIT Lincoln Laboratory AlphaSeq set, Engelhart et al. 2022, doi:10.1038/s41597-022-01779-4, as distributed in FLAb.